Experiments:
[1] = system: Rattus norvegicus; experiment: Effect on electrocardiogram in anaesthetized Wistar rat assessed as change in QRS interval at 1 mg/kg, iv after 1 min by electrocardiography; assay type: functional
[2] = system: Rattus norvegicus; experiment: Effect on electrocardiogram in anaesthetized Wistar rat assessed as change in QRS interval at 1 mg/kg, iv after 15 mins by electrocardiography; assay type: functional

COc1ccccc1OCCNCC(O)COc1cccc2[nH]c3ccccc3c12 (configuration not stated) [CARVEDILOL]
Activity [1]: 22 ms | Activity [2]: 23.2 ms
